Values quoted from earlier work as cited in US7417024B2, “Template-fixed peptidomimetics as inhibitors of serine proteases” (Polyphor Ltd., priority 2001, dated 2008).

Sequences of proteins named here, by UniProt entry; tags and fusion partners are left off. Residues count along the entry.
UniProt P08311, 21-244 limits assumed: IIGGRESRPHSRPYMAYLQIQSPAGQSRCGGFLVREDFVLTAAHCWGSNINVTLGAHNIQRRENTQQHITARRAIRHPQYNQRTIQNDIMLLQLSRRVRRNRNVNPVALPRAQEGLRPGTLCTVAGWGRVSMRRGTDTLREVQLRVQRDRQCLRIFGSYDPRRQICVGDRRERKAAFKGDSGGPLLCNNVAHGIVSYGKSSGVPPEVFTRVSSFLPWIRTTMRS

Target: cathepsin G (Homo sapiens, UniProt P08311)
Conditions: no value given; cited from earlier work

SMILES: CC[C@H](C)[C@@H]1NC(=O)[C@@H]2CCCN2C(=O)[C@@H]2CCCN2C(=O)[C@H]([C@@H](C)CC)NC(=O)[C@H](CO)NC(=O)[C@H](CCCCN)NC(=O)[C@H]([C@@H](C)O)NC(=O)[C@@H]2CSSC[C@H](NC1=O)C(=O)N[C@@H](Cc1ccccc1)C(=O)N1CCC[C@H]1C(=O)N[C@@H](CC(=O)O)C(=O)NCC(=O)N[C@@H](CCCNC(=N)N)C(=O)N2
- inhibition of cathepsin G: inhibited
